From ChEMBL document CHEMBL5625159, “Challenges for the development of mutant isocitrate dehydrogenases 1 inhibitors to treat glioma” (Eur J Med Chem, 2023)

Chains of the proteins cited; added tags and fusions are not shown. Residues count along the entry.
UniProt O75874, 2-414 R132H limits assumed: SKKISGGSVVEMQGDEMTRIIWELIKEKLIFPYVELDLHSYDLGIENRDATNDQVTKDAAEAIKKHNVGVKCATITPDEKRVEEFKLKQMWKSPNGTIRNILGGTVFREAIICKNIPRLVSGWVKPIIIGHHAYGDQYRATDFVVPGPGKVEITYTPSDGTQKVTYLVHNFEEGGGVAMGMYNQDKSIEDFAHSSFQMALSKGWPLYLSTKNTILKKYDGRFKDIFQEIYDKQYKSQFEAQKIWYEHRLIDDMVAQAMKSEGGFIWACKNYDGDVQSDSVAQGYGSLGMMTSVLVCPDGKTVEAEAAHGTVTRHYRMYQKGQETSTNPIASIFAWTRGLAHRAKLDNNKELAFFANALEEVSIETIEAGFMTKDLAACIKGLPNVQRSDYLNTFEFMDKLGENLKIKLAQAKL

Molecular target: Isocitrate dehydrogenase [NADP] cytoplasmic (Homo sapiens, UniProt O75874, R132H)
Test: Inhibition of human recombinant IDH1 R132H mutant expressed in Escherichia coli BL21 (DE3) cells in presence of alpha-ketoglutarate and NADPH by fluorescence based biochemical assay

IC50: 2.9 nM
Compound: C[C@H](O)c1cccc(NC(=O)c2nn(Cc3ccc(F)cc3)c3c2CN(C(=O)c2ccc[nH]2)C[C@H]3C)c1
